Measurements from ChEMBL document CHEMBL4017512, “Vinblastine 20' Amides: Synthetic Analogues That Maintain or Improve Potency and Simultaneously Overcome Pgp-Derived Efflux and Resistance” (J Med Chem, 2017).

Experiment: Efflux ratio of apparent permeability in human Caco2 cells
Type: ADME, cell-based
Conditions: Caco-2

Q: Which efflux ratio does the source give for `CC[C@]1(NC(=O)c2ccc3c(c2)CCCC3)C[C@H]2CN(CCc3c([nH]c4ccccc34)[C@@](C(=O)OC)(c3cc4c(cc3OC)N(C)[C@H]3[C@@](O)(C(=O)OC)[C@H](OC(C)=O)[C@]5(CC)C=CCN6CC[C@]43[C@@H]65)C2)C1` here?
A: 1.3
